Laboratory results published in US20250195530A1, “POLQ INHIBITORS” (ASTRAZENECA AB, priority 2022, published 2025).

By UniProt entry, the sequences of proteins in these tests, tags left out. Residues count along the entry.
UniProt O75417, 1780-2590: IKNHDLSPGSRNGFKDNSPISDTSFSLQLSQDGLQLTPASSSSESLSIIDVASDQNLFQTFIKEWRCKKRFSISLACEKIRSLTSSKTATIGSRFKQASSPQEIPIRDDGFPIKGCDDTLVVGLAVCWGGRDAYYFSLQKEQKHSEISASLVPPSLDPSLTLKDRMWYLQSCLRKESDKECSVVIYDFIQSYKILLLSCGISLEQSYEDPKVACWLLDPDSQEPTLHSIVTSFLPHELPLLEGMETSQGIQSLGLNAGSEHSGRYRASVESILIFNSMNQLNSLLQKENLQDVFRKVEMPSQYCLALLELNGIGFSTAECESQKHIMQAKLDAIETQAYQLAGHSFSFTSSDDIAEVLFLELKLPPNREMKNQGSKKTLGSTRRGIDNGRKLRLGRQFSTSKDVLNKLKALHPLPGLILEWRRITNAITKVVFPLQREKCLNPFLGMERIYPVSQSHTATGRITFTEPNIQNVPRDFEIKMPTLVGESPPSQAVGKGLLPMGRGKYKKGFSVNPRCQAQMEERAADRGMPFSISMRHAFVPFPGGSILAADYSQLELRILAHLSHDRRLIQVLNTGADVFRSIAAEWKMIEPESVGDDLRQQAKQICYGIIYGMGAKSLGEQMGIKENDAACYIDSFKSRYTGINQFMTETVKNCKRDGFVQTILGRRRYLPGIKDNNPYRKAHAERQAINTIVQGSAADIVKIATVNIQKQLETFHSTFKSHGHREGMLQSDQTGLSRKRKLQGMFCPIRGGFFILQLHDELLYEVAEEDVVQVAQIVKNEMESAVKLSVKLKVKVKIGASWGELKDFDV

Biological target: isolated polymerase domain (I1780-V2590) of DNA polymerase theta (Polθ) (Homo sapiens (Human), UniProt O75417)
Assay: biochemical

Structure (SMILES)	IC50
Cc1cc(OCCN2CCNCC2)ccc1-c1nc2c(OC3(C)CC3)ncnc2n1Cc1cc(Cl)ccn1 [Example T529, 9-((4-chloropyridin-2-yl)methyl)-8-(2-methyl-4-(2-(piperazin-1-yl)ethoxy)phenyl)-6-(1-methylcyclopropoxy)-9H-purine]	7.94 nM
Cc1cnc(Cn2c(-c3ccc(OCCCN4CCCC4)cc3Cl)nc3c(OC4(C)CC4)ncnc32)s1 [Example T388, 2-((8-(2-chloro-4-(3-(pyrrolidin-1-yl)propoxy)phenyl)-6-(1-methylcyclopropoxy)-9H-purin-9-yl)methyl)-5-methylthiazole]	5.01 nM
Cc1cc(Cl)cc(Cn2c(-c3ccc(OCCN4CCNCC4)cc3Cl)nc3c(OC4(C)CC4)ncnc32)n1 [Example T527, 8-(2-chloro-4-(2-(piperazin-1-yl)ethoxy)phenyl)-9-((4-chloro-6-methylpyridin-2-yl)methyl)-6-(1-methylcyclopropoxy)-9H-purine]	5.01 nM
Cc1ccnc(Cn2c(-c3ccc(C(=O)NC[C@H](C)F)cc3Cl)nc3c(OC4(C)CC4)ncnc32)c1 [Example T190, (S)-3-chloro-N-(2-fluoropropyl)-4-(6-(1-methylcyclopropoxy)-9-((4-methylpyridin-2-yl)methyl)-9H-purin-8-yl)benzamide]	12.6 nM
Cc1ccnc(Cn2c(-c3ccc(OCCCN4CC(O)C4)cc3Cl)nc3c(OC4(C)CC4)ncnc32)c1 [Example T513, 1-(3-(3-chloro-4-(6-(1-methylcyclopropoxy)-9-((4-methylpyridin-2-yl)methyl)-9H-purin-8-yl)phenoxy)propyl)azetidin-3-ol]	5.01 nM
Cc1ccnc(Cn2c(-c3ccc(OCC(=O)NC4(C)COC4)cc3Cl)nc3c(OC4(C)CC4)ncnc32)c1 [Example T476, 2-(3-chloro-4-(6-(1-methylcyclopropoxy)-9-((4-methylpyridin-2-yl)methyl)-9H-purin-8-yl)phenoxy)-N-(3-methyloxetan-3-yl)acetamide]	7.94 nM
Cc1ccnc(Cn2c(-c3ccc(OC(C)CO)cc3Cl)nc3c(OC4(C)CC4)ncnc32)c1 (single isomer, unassigned) [Example T127, 2-(3-chloro-4-(6-(1-methylcyclopropoxy)-9-((4-methylpyridin-2-yl)methyl)-9H-purin-8-yl)phenoxy)propan-1-ol]	3.98 nM
Cc1ccnc(Cn2c(-c3ccc(OCC(=O)N4CCC(F)CC4)cc3Cl)nc3c(OC4(C)CC4)ncnc32)c1 [Example T553, 2-(3-chloro-4-(6-(1-methylcyclopropoxy)-9-((4-methylpyridin-2-yl)methyl)-9H-purin-8-yl)phenoxy)-1-(4-fluoropiperidin-1-yl)ethan-1-one]	5.01 nM
Cc1ccnc(Cn2c(-c3ccc(N4CC[C@H](C(N)=O)C4)cc3Cl)nc3c(OC4(C)CC4)ncnc32)c1 [Example T340, (S)-1-(3-chloro-4-(6-(1-methylcyclopropoxy)-9-((4-methylpyridin-2-yl)methyl)-9H-purin-8-yl)phenyl)pyrrolidine-3-carboxamide]	7.94 nM
Cc1ccnc(Cn2c(-c3ccc(OCC(F)CO)cc3Cl)nc3c(OC4(C)CC4)ncnc32)c1 (single isomer, unassigned) [Example T110, 3-(3-chloro-4-(6-(1-methylcyclopropoxy)-9-((4-methylpyridin-2-yl)methyl)-9H-purin-8-yl)phenoxy)-2-fluoropropan-1-ol]	5.01 nM
CNC(=O)[C@H]1CCN(c2ccc(-c3nc4c(OC5(C)CC5)ncnc4n3Cc3cc(C)ccn3)c(Cl)c2)C1 [Example T497, (S)-1-(3-chloro-4-(6-(1-methylcyclopropoxy)-9-((4-methylpyridin-2-yl)methyl)-9H-purin-8-yl)phenyl)-N-methylpyrrolidine-3-carboxamide]	6.31 nM
Cc1ccnc(Cn2c(-c3ccc(OCC(=O)N4CCC4)cc3Cl)nc3c(OC4(C)CC4)ncnc32)c1 [Example T312, 1-(azetidin-1-yl)-2-(3-chloro-4-(6-(1-methylcyclopropoxy)-9-((4-methylpyridin-2-yl)methyl)-9H-purin-8-yl)phenoxy)ethan-1-one]	6.31 nM
CCC(=O)N1CC(Oc2ccc(-c3nc4c(OC5(C)CC5)ncnc4n3Cc3cc(C)ccn3)c(Cl)c2)C1 [Example T471, 1-(3-(3-chloro-4-(6-(1-methylcyclopropoxy)-9-((4-methylpyridin-2-yl)methyl)-9H-purin-8-yl)phenoxy)azetidin-1-yl)propan-1-one]	5.01 nM
Cc1ccnc(Cn2c(-c3ccc(CC(=O)NCC(C)(C)O)cc3Cl)nc3c(OC4(C)CC4)ncnc32)c1 [Example T515, 2-(3-chloro-4-(6-(1-methylcyclopropoxy)-9-((4-methylpyridin-2-yl)methyl)-9H-purin-8-yl)phenyl)-N-(2-hydroxy-2-methylpropyl)acetamide]	7.94 nM
Cc1ccnc(Cn2c(-c3ccc(C(=O)N4CCC4)cc3Cl)nc3c(OC4(C)CC4)ncnc32)c1 [Example T169, azetidin-1-yl(3-chloro-4-(6-(1-methylcyclopropoxy)-9-((4-methylpyridin-2-yl)methyl)-9H-purin-8-yl)phenyl)methanone]	6.31 nM
CC(Cc1ccccn1)n1c(-c2ccc(OCCN3CCNCC3)cc2Cl)nc2c(OC3(C)CC3)ncnc21 (single isomer, unassigned) [Example S7, 8-(2-chloro-4-(2-(piperazin-1-yl)ethoxy)phenyl)-6-(1-methylcyclopropoxy)-9-(1-(pyridin-2-yl)propan-2-yl)-9H-purine]	15.8 nM
CC1(Oc2ncnc3c2nc(-c2ccc(OCCN4CCNCC4)cc2F)n3Cc2cc(Cl)ccn2)CC1 [Example T349, 9-((4-chloropyridin-2-yl)methyl)-8-(2-fluoro-4-(2-(piperazin-1-yl)ethoxy)phenyl)-6-(1-methylcyclopropoxy)-9H-purine]	12.6 nM

Results, then the compound that gave them:

IC50	Structure (SMILES)
10 nM	Cc1c(Cn2c(-c3ccc(OCCC(C)C(=O)O)cc3Cl)nc3c(OC4(C)CC4)ncnc32)cccc1C(F)(F)F (single isomer, unassigned) [Example T534, 4-(3-chloro-4-(9-(2-methyl-3-(trifluoromethyl)benzyl)-6-(1-methylcyclopropoxy)-9H-purin-8-yl)phenoxy)-2-methylbutanoic acid]
10 nM	Cc1ccnc(Cn2c(-c3ccc(OCC(=O)NCCCF)cc3Cl)nc3c(OC4(C)CC4)ncnc32)c1 [Example T328, 2-(3-chloro-4-(6-(1-methylcyclopropoxy)-9-((4-methylpyridin-2-yl)methyl)-9H-purin-8-yl)phenoxy)-N-(3-fluoropropyl)acetamide]
5.01 nM	CNC(=O)COc1ccc(-c2nc3c(OC4(C)CC4)ncnc3n2Cc2cc(Cl)ccn2)c(Cl)c1 [Example T51, 2-(3-chloro-4-(9-((4-chloropyridin-2-yl)methyl)-6-(1-methylcyclopropoxy)-9H-purin-8-yl)phenoxy)-N-methylacetamide]
10 nM	CC(=O)NCCOc1ccc(-c2nc3c(OC4(C)CC4)ncnc3n2Cc2cc(C)ccn2)c(Cl)c1 [Example T219, N-(2-(3-chloro-4-(6-(1-methylcyclopropoxy)-9-((4-methylpyridin-2-yl)methyl)-9H-purin-8-yl)phenoxy)ethyl)acetamide]
6.31 nM	C[C@H](COc1cccc(-c2nc3c(OC4(C)CC4)ncnc3n2Cc2cccc(Cl)c2)c1Cl)C(=O)O [Example T159, (R)-3-(2-chloro-3-(9-(3-chlorobenzyl)-6-(1-methylcyclopropoxy)-9H-purin-8-yl)phenoxy)-2-methylpropanoic acid]
7.94 nM	CC(CCOc1ccc(-c2nc3c(OC4(C)CC4)ncnc3n2Cc2cccc(Br)c2)c(Cl)c1)C(=O)O (racemic) [Example T279, 4-(4-(9-(3-bromobenzyl)-6-(1-methylcyclopropoxy)-9H-purin-8-yl)-3-chlorophenoxy)-2-methylbutanoic acid]
25.1 nM	CC1(Oc2ncnc3c2nc(-c2ccc(OCCN4CCN(S(=O)(=O)O)CC4)cc2Cl)n3Cc2cc(Cl)ccn2)CC1 [Example T380, 4-(2-(3-chloro-4-(9-((4-chloropyridin-2-yl)methyl)-6-(1-methylcyclopropoxy)-9H-purin-8-yl)phenoxy)ethyl)piperazine-1-sulfonic acid]
6.31 nM	Cc1ccc(Cl)cc1Cn1c(-c2ccc(OCCC(C)C(=O)O)cc2Cl)nc2c(OC3(C)CC3)ncnc21 (racemic) [Example U36, 4-(3-chloro-4-(9-(5-chloro-2-methylbenzyl)-6-(1-methylcyclopropoxy)-9H-purin-8-yl)phenoxy)-2-methylbutanoic acid]
3.98 nM	CC1(Oc2ncnc3c2nc(-c2ccc(OCCOCCOCC(=O)O)cc2Cl)n3Cc2cccc(Cl)c2)CC1 [Example T451, 2-(2-(2-(3-chloro-4-(9-(3-chlorobenzyl)-6-(1-methylcyclopropoxy)-9H-purin-8-yl)phenoxy)ethoxy)ethoxy)acetic acid]
3.16 nM	C/C(=C\COc1ccc(-c2nc3c(OC4(C)CC4)ncnc3n2Cc2cccc(Cl)c2)c(Cl)c1)C(=O)O [Example T255, (E)-4-(3-chloro-4-(9-(3-chlorobenzyl)-6-(1-methylcyclopropoxy)-9H-purin-8-yl)phenoxy)-2-methylbut-2-enoic acid]
7.94 nM	CC(CCOc1ccc(-c2nc3c(OC4(C)CC4)ncnc3n2Cc2ccc(F)c(Cl)c2)c(Cl)c1)C(=O)O (racemic) [Example T269, 4-(3-chloro-4-(9-(3-chloro-4-fluorobenzyl)-6-(1-methylcyclopropoxy)-9H-purin-8-yl)phenoxy)-2-methylbutanoic acid]
3.98 nM	CC1(Oc2ncnc3c2nc(-c2cc(F)cc(OCCC(=O)O)c2Cl)n3Cc2cccc(Cl)c2)CC1 [Example U39, 3-(2-chloro-3-(9-(3-chlorobenzyl)-6-(1-methylcyclopropoxy)-9H-purin-8-yl)-5-fluorophenoxy)propanoic acid]
3.16 nM	COc1cc(Cl)cc(Cn2c(-c3ccc(OCCC(C)C(=O)O)cc3Cl)nc3c(OC4(C)CC4)ncnc32)c1 (single isomer, unassigned) [Example T447, 4-(3-chloro-4-(9-(3-chloro-5-methoxybenzyl)-6-(1-methylcyclopropoxy)-9H-purin-8-yl)phenoxy)-2-methylbutanoic acid]
